# According to patent US10577360B2, “Arylamide derivatives having multimodal activity against pain” (ESTEVE PHARMACEUTICALS, S.A., priority 2016, dated 2020):
# By UniProt entry, the sequences of proteins in these tests, tags left out. Where a name states a change or a piece, a line headed by the entry shows the natural chain unless it says otherwise. Residues count along the entry.
# UniProt P54289, 25-1103 limits assumed: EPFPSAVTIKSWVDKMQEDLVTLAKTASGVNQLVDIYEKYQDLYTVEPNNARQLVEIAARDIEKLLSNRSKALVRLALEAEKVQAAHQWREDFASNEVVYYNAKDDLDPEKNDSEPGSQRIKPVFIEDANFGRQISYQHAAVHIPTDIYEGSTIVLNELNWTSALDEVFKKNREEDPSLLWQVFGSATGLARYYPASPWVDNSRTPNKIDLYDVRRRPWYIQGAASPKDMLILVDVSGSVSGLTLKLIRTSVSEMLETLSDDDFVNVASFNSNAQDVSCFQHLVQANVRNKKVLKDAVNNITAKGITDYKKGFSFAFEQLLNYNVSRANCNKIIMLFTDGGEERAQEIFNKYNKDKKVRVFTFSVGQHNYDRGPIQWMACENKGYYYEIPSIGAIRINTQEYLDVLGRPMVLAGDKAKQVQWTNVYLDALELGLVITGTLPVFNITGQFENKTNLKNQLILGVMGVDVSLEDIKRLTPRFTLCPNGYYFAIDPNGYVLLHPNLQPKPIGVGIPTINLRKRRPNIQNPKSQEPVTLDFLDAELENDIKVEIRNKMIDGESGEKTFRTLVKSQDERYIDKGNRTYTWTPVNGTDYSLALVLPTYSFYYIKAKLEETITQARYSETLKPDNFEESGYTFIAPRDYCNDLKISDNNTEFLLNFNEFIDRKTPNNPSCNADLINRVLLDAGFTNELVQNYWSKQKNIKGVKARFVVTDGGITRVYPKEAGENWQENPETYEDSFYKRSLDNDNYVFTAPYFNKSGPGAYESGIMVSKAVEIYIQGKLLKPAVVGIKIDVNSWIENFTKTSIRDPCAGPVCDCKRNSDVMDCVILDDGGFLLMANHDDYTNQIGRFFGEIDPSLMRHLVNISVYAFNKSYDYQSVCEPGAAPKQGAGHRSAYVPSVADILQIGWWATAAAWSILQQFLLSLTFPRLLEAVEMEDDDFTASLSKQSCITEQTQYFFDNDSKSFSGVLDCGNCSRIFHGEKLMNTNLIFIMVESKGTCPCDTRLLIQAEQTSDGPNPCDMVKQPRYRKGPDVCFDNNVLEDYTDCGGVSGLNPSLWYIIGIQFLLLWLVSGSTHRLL
# pKi: −log10 of the molar value. Some compounds may have been tested in ways that are not shown here.
# Molecular target: Human α2δ-1 subunit of Cav2.2 calcium channel (Homo sapiens (Human), UniProt P54289)
# Test: Human α2δ-1 subunit of Cav2.2 calcium channel assay ([3H]-Gabapentin binding)
# Conditions: read-out: α2δ − 1 (Ki)
row,SMILES,pKi
1,COc1ccc(-n2ccc(N(C(=O)c3cccs3)C3CCN(C)CC3)n2)c(Cl)c1,< 5.30
2,Cc1cc(N(C(=O)c2cccs2)C2CCN(C)CC2)nn1-c1ccccc1,< 5.30
3,O=C(c1cccs1)N(c1ccn(-c2ccncc2F)n1)C1CCN(Cc2ccccc2)CC1,5.30 to 6.30
4,Cc1cccc(F)c1C(=O)N(c1ccn(-c2ccccc2)n1)C1CCN(C)CC1,< 5.30
5,COc1cc(-n2ccc(N(C(=O)c3cccs3)C3CCN(C)CC3)n2)ccc1F,5.30 to 6.30
6,CN1CCC(N(C(=O)c2ccccc2)c2ccn(-c3ccccc3)n2)CC1,< 5.30
7,Cc1nnc(-c2cccc(C(=O)N(c3ccn(-c4ccccc4)n3)C3CCN(C)CC3)c2)o1,< 5.30
8,Cc1nnc(-c2cccc(-n3ccc(N(C(=O)c4cccc(O)c4)C4CCN(Cc5ccccc5)CC4)n3)c2)o1,5.30 to 6.30
9,COc1cc(Cl)cc(-n2ccc(N(C(=O)c3cccs3)C3CCN(C)CC3)n2)c1,5.30 to 6.30
10,COc1cccc(-n2ccc(N(C(=O)c3ccsc3)C3CCN(C)CC3)n2)c1,5.30 to 6.30
11,CN1CCC(N(C(=O)c2cccs2)c2ccn(-c3ccc(F)c(O)c3)n2)CC1,5.30 to 6.30
12,Cc1nnc(-c2cccc(-n3ccc(N(C(=O)c4ccc(O)cc4)C4CCN(C)CC4)n3)c2)o1,< 5.30
13,COc1cc(F)cc(-n2cc(N(C(=O)c3cccs3)C3CCN(C)CC3)cn2)c1,< 5.30
14,Cc1nnc(-c2cccc(-n3ccc(N(C(=O)c4cccs4)C4CCN(Cc5ccc(F)c(F)c5)CC4)n3)c2)o1,6.30 to 7.00
15,CN1CCC(N(C(=O)c2cccs2)c2ccn(-c3ccccc3)n2)CC1,6.30 to 7.00
16,O=C(c1sccc1Cl)N(c1ccn(-c2ccccc2)n1)C1CCN(Cc2ccccc2)CC1,< 5.30
17,Cc1nnc(-c2cccc(-n3cc(N(C(=O)c4cccs4)C4CCN(C)CC4)cn3)c2)o1,< 5.30
18,CN1CCC(N(C(=O)c2cccs2)c2cncc(-c3ccc(F)cc3)n2)CC1,< 5.30
19,CC1CC(N(C(=O)c2cccs2)c2ccn(-c3ccccc3)n2)CC(C)N1C (stereo not shown),5.30 to 6.30
20,COc1ccc(C(=O)N(c2ccn(-c3ccccc3)n2)C2CCN(Cc3ccccc3)CC2)cc1,< 5.30
21,COc1ccccc1C(=O)N(c1ccn(-c2ccccc2)n1)C1CCN(C)CC1,< 5.30
22,O=C(c1ccco1)N(c1ccn(-c2ccc(F)cc2)n1)C1CCN(Cc2ccccc2)CC1,< 5.30
23,Cc1nnc(-c2cccc(-n3cc(N(C(=O)c4ccc(O)cc4)C4CCN(C)CC4)cn3)c2)o1,< 5.30
24,Cc1nnc(-c2cccc(-n3ccc(N(C(=O)c4cccs4)C4CCN(Cc5ccccc5)CC4)n3)c2)o1,6.30 to 7.00

row,SMILES,pKi
1,COc1ccc(-n2ccc(N(C(=O)c3cccs3)C3CCN(C)CC3)n2)cn1,< 5.30
2,CC(C)CN1CCC(N(C(=O)c2cccs2)c2ccn(-c3ccccc3)n2)CC1,5.30 to 6.30
3,CN1CCC(N(C(=O)c2cccs2)c2ccn(-c3ccncc3)n2)CC1,5.30 to 6.30
4,CN1CCC(N(C(=O)c2cccs2)c2ccn(-c3cccc(O)c3)n2)CC1,5.30 to 6.30
5,Cc1nnc(-c2cccc(-n3ccc(N(C(=O)c4cccs4)C4CCN(CC(O)c5ccccc5)CC4)n3)c2)o1 (stereo not shown),< 5.30
6,CN1CCC(N(C(=O)c2cccs2)c2ccn(-c3ccc(Cl)cc3Cl)n2)CC1,5.30 to 6.30
7,CN1CCC(N(C(=O)c2ccc[nH]2)c2ccn(-c3ccccc3)n2)CC1,6.30 to 7.00
8,COc1cccc(-n2ccc(N(C(=O)c3cccs3)C3CCN(Cc4cccnc4)CC3)n2)c1,< 5.30
9,COCCOc1cccc(-n2ccc(N(C(=O)c3cccs3)C3CCN(C)CC3)n2)c1,5.30 to 6.30
10,COc1cccc(-n2ccc(N(C(=O)c3cccs3)C3CCN(C)CC3)n2)c1,6.30 to 7.00
11,CCN1CCC(N(C(=O)c2cccs2)c2ccn(-c3ccccc3)n2)CC1,5.30 to 6.30
12,CN1CCC(N(C(=O)c2cccs2)c2ccn(-c3ccnn3C)n2)CC1,< 5.30
13,COc1cccc(-n2ccc(N(C(=O)c3cccs3)C3CCN(Cc4cccc(C(F)(F)F)n4)CC3)n2)c1,< 5.30
14,Cc1cnccc1-n1ccc(N(C(=O)c2cccs2)C2CCN(C)CC2)n1,5.30 to 6.30
15,Cc1ccc(C(=O)N(c2ccn(-c3ccccc3)n2)C2CCN(C)CC2)cn1,< 5.30
16,O=C(c1cccs1)N(c1ccn(-c2ccccc2)n1)C1CCN(Cc2ccccc2)CC1,5.30 to 6.30
17,CN1CCC(N(C(=O)c2cccs2)c2ccn(-c3ccccn3)n2)CC1,< 5.30
18,O=C(c1cccs1)N(c1ccn(-c2c(Cl)cncc2Cl)n1)C1CCN(Cc2ccccc2)CC1,< 5.30
19,O=C(c1cccs1)N(c1ccn(-c2cccc(F)c2)n1)C1CCN(Cc2ccccc2)CC1,5.30 to 6.30
20,COc1ccc(-n2ccc(N(C(=O)c3cccs3)C3CCN(C)CC3)n2)cc1OC,< 5.30
21,Cc1nnc(-c2cccc(-c3cccc(N(C(=O)c4cccs4)C4CCN(C)CC4)n3)c2)o1,6.30 to 7.00
22,CN1CCC(N(C(=O)c2cccs2)c2ccn(-c3cccc(F)c3)n2)CC1,5.30 to 6.30
23,CCOc1ccc(-n2ccc(N(C(=O)c3nccs3)C3CCN(Cc4ccccc4)CC3)n2)cc1,< 5.30
24,Cc1nnc(-c2cccc(-n3ccc(N(C(=O)c4cccs4)C4CCN(CCc5ccccn5)CC4)n3)c2)o1,< 5.30

row,SMILES,pKi
1,O=C(c1cccs1)N(c1cncc(-c2ccc(F)cc2)n1)C1CCN(Cc2ccccc2)CC1,5.30 to 6.30
2,O=C(c1cccs1)N(c1ccn(-c2ccncc2Cl)n1)C1CCN(Cc2ccccc2)CC1,5.30 to 6.30
3,CCOc1ccc(-c2cncc(N(C(=O)c3cccs3)C3CCN(Cc4ccccc4)CC3)n2)cc1,< 5.30
4,COc1cc(OC)cc(-n2ccc(N(C(=O)c3cccs3)C3CCN(C)CC3)n2)c1,< 5.30
5,O=C(c1nccs1)N(c1ccn(-c2ccccc2)n1)C1CCN(Cc2ccccc2)CC1,5.30 to 6.30
6,CCOc1cccc(C(=O)N(c2ccn(-c3cccc(-c4nnc(C)o4)c3)n2)C2CCN(C)CC2)c1,< 5.30
7,N#Cc1cccc(-n2ccc(N(C(=O)c3cccs3)C3CCN(Cc4ccccc4)CC3)n2)c1,5.30 to 6.30
8,Cc1nnc(-c2cccc(-n3ccc(N(C(=O)c4ccco4)C4CCN(Cc5ccccc5)CC4)n3)c2)o1,6.30 to 7.00
9,Cc1nnc(-c2cccc(-n3ccc(N(C(=O)c4cccs4)C4CCN(CC(C)C)CC4)n3)c2)o1,5.30 to 6.30
10,N#Cc1ccc(-n2ccc(N(C(=O)c3cccs3)C3CCN(Cc4ccccc4)CC3)n2)cc1,< 5.30
11,O=C(c1cccs1)N(c1cncc(-c2ccccc2)n1)C1CCN(Cc2ccccc2)CC1,< 5.30
12,CN1CCC(N(C(=O)c2cccs2)c2ccn(-c3ccc(C#N)cc3)n2)CC1,5.30 to 6.30
13,O=C(c1cccs1)N(c1ccn(-c2ccccn2)n1)C1CCN(Cc2ccccc2)CC1,5.30 to 6.30
14,COc1cc(F)cc(-n2ccc(N(C(=O)c3cccs3)C3CCN(C)CC3)n2)c1,6.30 to 7.00
15,Cc1nnc(-c2cccc(-n3ccc(N(C(=O)c4cccc(-c5ncc[nH]5)c4)C4CCN(C)CC4)n3)c2)o1,< 5.30
16,Cc1nnc(-c2cccc(-n3ccc(N(C(=O)c4cccs4)C4CCN(C)CC4)n3)c2)o1,> 7.00
17,COc1cccc(C(=O)N(c2ccn(-c3ccccc3)n2)C2CCN(C)CC2)c1,< 5.30
18,CN1CCC(N(C(=O)c2cccs2)c2ccn(-c3cccc(N(C)C)c3)n2)CC1,5.30 to 6.30
19,CN1CCC(N(C(=O)c2cccs2)c2ccn(-c3cccc(C#N)c3)n2)CC1,5.30 to 6.30
20,Cc1nnc(-c2cccc(-n3ccc(N(C(=O)c4ccns4)C4CCN(Cc5ccccc5)CC4)n3)c2)o1,6.30 to 7.00
21,CN1CCC(N(C(=O)c2cccs2)c2ccn(-c3cccnc3)n2)CC1,5.30 to 6.30
22,Cc1nnc(-c2cccc(-n3ccc(N(C(=O)c4cccs4)C4CCN(Cc5cccc(C(F)(F)F)n5)CC4)n3)c2)o1,5.30 to 6.30
